Patent publication US20240325362A1, “NOVEL THERAPEUTIC METHOD FOR ENHANCING MITOCHONDRIAL FUNCTION, TREATING MITOCHONDRIAL DISEASES THEREBY, AND COMPOUNDS USED THEREIN” (STANDIGM INC., priority 2020, published 2024)

Legend:
[1] = tested on: SH-SY5Y human neuroblastoma cells; experiment: Overall protection in MPP+-lesioned human cell model; assay type: cell-based; details: for cell-protective ability against MPP+ (FIG. 4): 0.01-100 nM, FIGS. 4(A)-4(E); for cell-protective ability against MPP+ (FIG. 4) / protective effects on mitochondrial functions (FIG. 3): 4 hours before 1 mM MPP+ for 20 hours; for protective activity on mitochondria and cells at sub-nanomolar doses: MPP+-lesioned human cell model; for protective effects on mitochondrial functions (FIG. 3): 0.001-10 µM, FIGS. 3(A)-3(E); for protective effects against MPP+ (FIG. 2) / protective effects against MPP+ induced cellular and mitochondrial damages (FIG. 1): compound 4 hours before 1 mM MPP+ for 20 hours; for protective effects against MPP+ (FIG. 2): FIGS. 2(A)-2(C); for protective effects against MPP+ induced cellular and mitochondrial damages (FIG. 1): FIGS. 1(A), 1(B)
[2] = tested on: SH-SY5Y human neuroblastoma cells; assay type: cell-based; details: 0.01-100 nM; 1 mM MPP+ 20 hours
Experimental: Similarly, total and mitochondrial ROS generations were measured using CM-H2DCFDA and MitoSox, respectively. Cells were incubated with 1 µM CM-H2DCFDA or 5 μM MitoSox and 0.5 μM Hoechst 33342 for 1 hour at 37° C.
Fluorescence intensities at 550 nm/580 nm for TMRE, at 510 nm/580 nm for MitoSox, or at 494 nm/522 nm for CM-H2DCFDA were normalized by HOECHST® intensity at 355 nm/480 nm (Spectramax Gemini EM, Molecular Devices, Sunnyvale, CA, USA).

Compound: 3-O-(2-methoxyethyl) 5-O-propoan-2-yl 2,6-dimethyl-4-(3- nitrophenyl)-1,4- dihydropyridine-3.5- dicarboxylate [nimodipine]
- cell-protective ability against MPP+ (FIG. 4) [1]: cell-protective ability
- protective activity on mitochondria and cells at sub-nanomolar doses [1]: protective activity on mitochondria and cells even under sub-nanomolar doses
- intracellular ROS content, FIG. 4(E) [2]: reduced ROS production significantly
- mitochondrial ROS content, FIG. 4(D) [2]: reduced ROS production significantly

Compound: 5-O-[(3R)-1- benzylpiperidin- 3-yl] 3-O-methyl (4R)-2,6- dimethyl-4-(3- mitrophenyl)-1,4- dihydropyridine- 3,5-dicarboxylate [benidipine]
- cell-protective ability against MPP+ (FIG. 4) [1]: cell-protective ability

Compound: 5-O-ethyl 3-O-methyl 2,6-dimethyl-4-(3- nitrophenyl)-1,4- didropyridine-3,5- dicarboxylate [nitrendipine]
- cell-protective ability against MPP+ (FIG. 4) [1]: cell-protective ability

Compound: CCN(CC)C(=O)N1CCN(C)CC1 [diethylcarbamazine, N,N-diethyl-4-methylpiperazine-1-carboxamide]
- cell-protective ability against MPP+ (FIG. 4) [1]: cell-protective ability

Compound: COC(=O)C1=C(C)NC(C)=C(C(=O)OC(C)(C)CN(C)CCC(c2ccccc2)c2ccccc2)C1c1cccc([N+](=O)[O-])c1 (stereo not shown) [lercanidipine, 5-O-[1-[3,3-diphenylpropyl (methyl)amino]-2-methylpropan-2-yl] 3-O-methyl 2,6-dimethyl-4-(3-nitrophenyl)-1,4-dihydropyridine-3,5-dicarboxylate]
- protective effects on mitochondrial functions (FIG. 3) [1]: protective effects
- protective effects against MPP+ (FIG. 2) [1]: Protective Effects

Compound: CC(=O)[C@@]1(O)CC[C@H]2[C@@H]3C=C(C)C4=CC(=O)CC[C@]4(C)[C@H]3CC[C@@]21C [megestrol, (8R,9S,10R,13S,14S, 17R)-17-acetyl-17-hydroxy-6,10, 13-trimethyl-2,8,9,11,12,14,15, 16-octahydro-1H-cyclopenta[a] phenanthren-3-one]
- protective effects against MPP+ (FIG. 2) [1]: Protective Effects

Compound: N-(3-methyl-5- sulfamoyl-1,3,4- thiadazol-2- ylidene)acetamide [methazolamide]
- cell-protective ability against MPP+ (FIG. 4) [1]: cell-protective ability

Compound: cinepazide
- protective effects on mitochondrial functions (FIG. 3) [1]: protective effects
- protective effects against MPP+ induced cellular and mitochondrial damages (FIG. 1) [1]: protective effects

Compound: fusidic acid
- protective effects against MPP+ (FIG. 2) [1]: Protective Effects

Compound: mitiglinide
- protective effects against MPP+ induced cellular and mitochondrial damages (FIG. 1) [1]: protective effects

Compound: mycophenolate-mofetil
- protective effects on mitochondrial functions (FIG. 3) [1]: protective effects
- protective effects against MPP+ (FIG. 2) [1]: Protective Effects

Compound: nicardipine
- cell-protective ability against MPP+ (FIG. 4) [1]: cell-protective ability
- protective activity on mitochondria and cells at sub-nanomolar doses [1]: protective activity on mitochondria and cells even under sub-nanomolar doses
- intracellular ROS content, FIG. 4(E) [2]: reduced ROS production significantly
- mitochondrial ROS content, FIG. 4(D) [2]: reduced ROS production significantly

Compound: preladenant
- protective effects against MPP+ induced cellular and mitochondrial damages (FIG. 1) [1]: protective effects
